Source: paper PMC5602572, “New carboxamide derivatives bearing benzenesulphonamide as a selective COX-II inhibitor: Design, synthesis and structure-activity relationship” (PLoS ONE, 2017)

Target: T1, COX-2 (Ovis aries, UniProt P79208)
T1 construct: purchased Cayman chemicals, USA
T1 sequence (P79208 17-603): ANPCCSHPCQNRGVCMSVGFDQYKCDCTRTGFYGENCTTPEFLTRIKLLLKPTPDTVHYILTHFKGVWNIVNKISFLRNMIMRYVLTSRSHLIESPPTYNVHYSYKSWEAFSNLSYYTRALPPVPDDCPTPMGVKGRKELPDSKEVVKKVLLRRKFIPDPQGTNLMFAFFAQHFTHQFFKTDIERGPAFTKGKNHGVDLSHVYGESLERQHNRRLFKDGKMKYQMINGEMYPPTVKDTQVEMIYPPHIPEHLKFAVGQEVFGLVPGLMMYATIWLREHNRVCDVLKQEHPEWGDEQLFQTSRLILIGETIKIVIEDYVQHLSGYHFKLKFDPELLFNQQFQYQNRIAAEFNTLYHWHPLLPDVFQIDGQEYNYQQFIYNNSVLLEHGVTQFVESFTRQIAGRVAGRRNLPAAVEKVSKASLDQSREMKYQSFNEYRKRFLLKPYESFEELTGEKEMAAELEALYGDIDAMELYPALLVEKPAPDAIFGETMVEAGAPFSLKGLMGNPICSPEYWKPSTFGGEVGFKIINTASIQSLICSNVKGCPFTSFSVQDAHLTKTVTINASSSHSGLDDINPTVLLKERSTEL
Assay: In vitro cyclooxygenase inhibitory assay (Cayman colorimetric COX (ovine) inhibitor screening kit), COX-2
Format: biochemical
Conditions: for S I (selectivity COX-2/COX-1): ratio of % inhibition COX-2/COX-1 at 2.0 μM; for selectivity for COX-2 (in words): from COX-2/COX-1 % inhibition at 2.0 μM
Protocol: The calculations were performed as per the kit guidelines.

Cc1ccnc(NC(=O)[C@H](Cc2cc3ccccc3[nH]2)N(C(=O)c2ccccc2)S(=O)(=O)c2ccc([N+](=O)[O-])cc2)c1 [Compound 7c, (2S)-3-(1H-indol-2-yl)-N-(4-methylpyridin-2-yl)-2-[N-(4-nitrobenzenesulfonyl)-1-phenylformamido]propanamide]
S I (selectivity COX-2/COX-1): 35

Cc1ccc(S(=O)(=O)N2CCC[C@H]2C(=O)Nc2cc(C)ccn2)cc1 [Compound 7p, (2S)-1-(4-Methylbenzenesulfonyl)-N-(4-methylpyridin-2-yl)pyrrolidine-2-carboxamide]
S I (selectivity COX-2/COX-1): 2.5

Cc1ccnc(NC(=O)[C@@H]2CC(O)CN2S(=O)(=O)c2ccc([N+](=O)[O-])cc2)c1 (stereo partly drawn) [Compound 7g, (2S)-4-Hydroxy-N-(4-methylpyridin-2-yl)-1-(4-nitrobenzenesulfonyl)pyrrolidine-2-carboxamide]
selectivity for COX-2 (in words): non-selective
S I (selectivity COX-2/COX-1): 1.11

Cc1ccnc(NC(=O)[C@@H]2CCCN2S(=O)(=O)c2ccc([N+](=O)[O-])cc2)c1 [Compound 7h, (2S)-N-(4-methylpyridin-2-yl)-1-(4-nitrobenzenesulfonyl)pyrrolidine-2-carboxamide]
selectivity for COX-2 (in words): non-selective
S I (selectivity COX-2/COX-1): 0.43

Cc1ccc(S(=O)(=O)N2CC(O)C[C@H]2C(=O)Nc2cc(C)ccn2)cc1 (stereo partly drawn) [Compound 7o, (2S)-4-Hydroxy-1-(4-methylbenzenesulfonyl)-N-(4-methylpyridin-2-yl)pyrrolidine-2-carboxamide]
S I (selectivity COX-2/COX-1): 3.00
